Results: ChEMBL document CHEMBL1150976, “The selectivity of protein kinase inhibitors: a further update” (Biochem J, 2007)

How the values were obtained:
[1] = target: Proto-oncogene tyrosine-protein kinase Src (Gallus gallus, UniProt P00523); test: Inhibition of Src in the presence of 50uM ATP
[2] = target: T1, Serine/threonine-protein kinase D1 (Homo sapiens, UniProt Q15139); test: Inhibition of PKD1 in the presence of 50uM ATP
T1 sequence (Q15139 whole entry): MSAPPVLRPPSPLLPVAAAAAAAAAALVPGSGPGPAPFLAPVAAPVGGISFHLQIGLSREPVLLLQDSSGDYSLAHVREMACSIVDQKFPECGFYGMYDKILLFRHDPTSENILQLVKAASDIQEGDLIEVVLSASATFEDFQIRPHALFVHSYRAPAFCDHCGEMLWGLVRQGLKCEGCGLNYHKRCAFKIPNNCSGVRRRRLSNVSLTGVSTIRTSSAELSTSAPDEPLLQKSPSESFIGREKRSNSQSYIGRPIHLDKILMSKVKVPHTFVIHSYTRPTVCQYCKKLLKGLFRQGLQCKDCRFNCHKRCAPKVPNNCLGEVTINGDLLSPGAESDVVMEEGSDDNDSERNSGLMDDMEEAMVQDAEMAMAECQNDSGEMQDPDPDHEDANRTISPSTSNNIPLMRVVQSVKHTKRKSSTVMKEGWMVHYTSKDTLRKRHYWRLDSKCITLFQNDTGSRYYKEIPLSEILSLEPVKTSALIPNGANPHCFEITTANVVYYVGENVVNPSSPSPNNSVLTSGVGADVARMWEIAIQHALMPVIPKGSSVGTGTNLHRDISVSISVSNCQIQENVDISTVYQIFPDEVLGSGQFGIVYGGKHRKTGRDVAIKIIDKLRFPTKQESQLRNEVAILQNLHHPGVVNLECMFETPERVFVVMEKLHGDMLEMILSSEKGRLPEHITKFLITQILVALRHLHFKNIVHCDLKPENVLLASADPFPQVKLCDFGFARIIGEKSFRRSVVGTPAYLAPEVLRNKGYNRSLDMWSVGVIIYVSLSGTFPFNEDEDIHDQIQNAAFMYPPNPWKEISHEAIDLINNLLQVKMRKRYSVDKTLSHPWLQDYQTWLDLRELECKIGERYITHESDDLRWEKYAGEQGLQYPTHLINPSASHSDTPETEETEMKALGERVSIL

Row | IC50 [1] | Structure (SMILES) | IC50 [2]
1 | 620 nM (antagonist) | CC(C)(C)n1nc(Cc2cccc3ccccc23)c2c(N)ncnc21 | –
2 | – | CC(C)(C)n1nc(-c2cccc3ccccc23)c2c(N)ncnc21 | 900 nM (antagonist)
